The results in this text go back to US5276120A, “Process for forming omega-deuxy-azasugars” (The Scripps Research Institute, priority 1992, dated 1994).

The target of the experiment is T1, α-D-Mannosidase (jack bean) (Canavalia ensiformis, UniProt C0HJB3).
T1 construct: purchased Sigma
T1 sequence (C0HJB3 1-562 limits assumed): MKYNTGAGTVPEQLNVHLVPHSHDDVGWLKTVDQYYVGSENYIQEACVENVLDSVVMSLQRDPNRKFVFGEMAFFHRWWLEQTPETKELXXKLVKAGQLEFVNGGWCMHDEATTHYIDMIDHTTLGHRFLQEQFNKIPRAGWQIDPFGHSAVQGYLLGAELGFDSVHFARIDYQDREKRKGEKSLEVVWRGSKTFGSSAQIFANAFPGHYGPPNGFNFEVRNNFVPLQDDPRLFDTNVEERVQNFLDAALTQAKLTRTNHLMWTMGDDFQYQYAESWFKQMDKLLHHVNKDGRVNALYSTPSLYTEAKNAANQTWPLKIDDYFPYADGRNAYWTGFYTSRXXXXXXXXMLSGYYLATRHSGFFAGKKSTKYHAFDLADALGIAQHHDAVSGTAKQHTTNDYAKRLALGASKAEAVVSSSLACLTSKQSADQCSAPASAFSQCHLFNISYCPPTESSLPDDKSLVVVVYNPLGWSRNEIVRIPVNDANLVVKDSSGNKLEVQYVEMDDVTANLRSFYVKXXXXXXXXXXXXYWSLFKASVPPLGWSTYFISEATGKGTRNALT
T1 sequence (C0HJB3 563-981 limits assumed): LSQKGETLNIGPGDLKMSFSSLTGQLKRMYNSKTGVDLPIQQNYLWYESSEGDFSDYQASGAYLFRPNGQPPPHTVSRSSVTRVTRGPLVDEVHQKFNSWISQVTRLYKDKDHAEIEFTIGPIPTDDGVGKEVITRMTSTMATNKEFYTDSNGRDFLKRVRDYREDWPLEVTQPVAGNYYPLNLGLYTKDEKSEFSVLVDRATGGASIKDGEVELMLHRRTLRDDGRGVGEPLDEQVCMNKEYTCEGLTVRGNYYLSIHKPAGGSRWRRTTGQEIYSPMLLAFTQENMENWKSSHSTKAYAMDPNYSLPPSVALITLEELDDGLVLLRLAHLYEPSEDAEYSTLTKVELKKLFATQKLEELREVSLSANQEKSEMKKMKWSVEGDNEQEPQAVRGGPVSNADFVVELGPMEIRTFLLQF
Briefly: Glycosidase inhibition, α-D-mannosidase (jack bean). The conditions noted are these: pH 6.5. Format: biochemical. As to the method:
Materials: All of the buffers, enzymes, and substrates were purchased from Sigma and used as received. These included piperazine-N,N'-bis(2-ethanesulfonic acid) (PIPES), sodium acetate (NaOAc), ethylenediaminetetraacetic acid (EDTA), β-D-glucosidase (from sweet almond), p-nitrophenyl β-D-glucoside, α-D-glucosidase, p-nitrophenyl α-D-glucoside, β-N-acetyl-D-glucosaminedase, p-nitrophenyl β-N-acetyl-D-glucosaminide, α-D-mannosidase, and p-nitrophenyl α-D-mannoside.
f) α-D-Mannosidase: 5 mg of the solid protein were suspended in 1 mL of 3.0M (NH4)2 SO4 and 0.1 zinc acetate (ZnOAc), as distributed by Sigma.
g) Substrate solutions: all substrates were dissolved in the corresponding buffer solution for enzymatic assay.
For each inhibitor, five inhibitor concentrations, ranging from zero to three times Ki, were generally used to determine the Ki value. At each inhibitor concentration, six substrate concentrations, spanning from 0.4 Km to 4 Km, were used to obtain a single Lineweaver-Burk plot. The amount of enzyme added in each assay was adjusted so that less than 10 percent of the substrate, with its lowest substrate concentration, would be consumed within 45 seconds. Since all of the substrates have p-nitrophenol as leaving group, the assays were monitored at 400 nanometers (nm), where the molecular extinction coefficient, ε, was calibrated to be 3204.5M^-1 cm^-1 at pH 6.5. […]

Usually Ki stands for a measure of affinity in units of concentration, obtained from inhibition or displacement. The low end stands for a stronger hold on the target, the high end for a looser hold on the target. Molecule `OCC1NCC(O)C(O)C1O` (stereo not shown) [Compound 23, 1-deoxynojirimycin] came in with an inhibition constant Ki of 400 µM.
